Reference: US20210163536A1

Sequences of proteins named here, by UniProt entry; tags and fusion partners are left off. A change or cut given only in a name is not applied to a line headed by its entry.
UniProt P32245, whole entry: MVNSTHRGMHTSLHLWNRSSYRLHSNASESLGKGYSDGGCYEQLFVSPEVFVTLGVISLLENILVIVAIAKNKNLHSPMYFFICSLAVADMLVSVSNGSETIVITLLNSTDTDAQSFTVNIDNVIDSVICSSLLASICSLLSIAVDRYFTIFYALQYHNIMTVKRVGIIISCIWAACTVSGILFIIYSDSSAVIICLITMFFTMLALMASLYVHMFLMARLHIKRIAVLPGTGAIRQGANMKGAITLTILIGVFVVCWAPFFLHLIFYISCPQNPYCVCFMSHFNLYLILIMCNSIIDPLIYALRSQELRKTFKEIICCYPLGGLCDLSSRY
UniProt P41968: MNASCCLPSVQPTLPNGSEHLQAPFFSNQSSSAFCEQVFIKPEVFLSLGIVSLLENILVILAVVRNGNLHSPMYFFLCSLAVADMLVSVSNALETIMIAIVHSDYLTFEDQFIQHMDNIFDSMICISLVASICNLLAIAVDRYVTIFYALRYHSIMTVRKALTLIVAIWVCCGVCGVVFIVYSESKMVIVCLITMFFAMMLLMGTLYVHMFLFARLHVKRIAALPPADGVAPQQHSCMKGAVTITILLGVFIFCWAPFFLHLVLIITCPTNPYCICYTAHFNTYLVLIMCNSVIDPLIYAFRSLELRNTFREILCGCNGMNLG
UniProt P33032: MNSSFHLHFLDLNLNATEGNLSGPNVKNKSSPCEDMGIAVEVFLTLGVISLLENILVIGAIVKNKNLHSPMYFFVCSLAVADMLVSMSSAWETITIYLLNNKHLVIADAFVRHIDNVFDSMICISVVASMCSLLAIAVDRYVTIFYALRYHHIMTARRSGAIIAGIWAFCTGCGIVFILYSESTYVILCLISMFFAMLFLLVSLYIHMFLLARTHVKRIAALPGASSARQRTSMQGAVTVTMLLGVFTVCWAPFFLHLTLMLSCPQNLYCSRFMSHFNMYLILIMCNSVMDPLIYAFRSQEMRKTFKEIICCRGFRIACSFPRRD
UniProt Q01726: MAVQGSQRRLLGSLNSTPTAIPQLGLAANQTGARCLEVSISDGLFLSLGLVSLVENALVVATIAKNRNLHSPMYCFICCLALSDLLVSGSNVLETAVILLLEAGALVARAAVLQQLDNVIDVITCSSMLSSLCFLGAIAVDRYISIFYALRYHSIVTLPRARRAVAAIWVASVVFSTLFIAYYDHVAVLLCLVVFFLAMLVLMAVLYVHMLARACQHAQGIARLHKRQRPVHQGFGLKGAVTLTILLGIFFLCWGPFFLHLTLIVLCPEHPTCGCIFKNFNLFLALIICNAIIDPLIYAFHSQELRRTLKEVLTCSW

Assays:
Test in all cases: competition with [125I]-NDP-alpha-MSH, CHO-K1 cell membranes
[1] = molecular target: human melanocortin-4 receptor (human) (UniProt P32245)
[2] = molecular target: human melanocortin-3 receptor (human) (UniProt P41968)
[3] = molecular target: human melanocortin-5 receptor (human) (UniProt P33032)
[4] = molecular target: human melanocortin-1 receptor (human) (UniProt Q01726)

Ki [1]: 0.126 µM | Ki [2]: 7.59 µM | Ki [3]: 7.02 µM | Ki [4]: 0.23 µM
B1: cyclo[Hydantoin(C(O)-(Cys-D-Ala))-His-D-Phe-Arg-Trp-Cys]-NH2 (peptide)
peptide: HXRWC
modifications: not fully specified; hydantoin ring from Cys 1, C(O) and the amino group of D-Ala 2; D-Ala 2; D-Phe 4; disulfide Cys 1-Cys 7 (cyclo); C-terminal amide
